Measurements taken from PMC4322223, “Biochemical and structural characterization of a thermostable β-glucosidase from Halothermothrix orenii for galacto-oligosaccharide synthesis” (Applied Microbiology and Biotechnology, 2014).

Sequences of proteins named here, by UniProt entry; tags and fusion partners are left off.
UniProt B8CYA8, entry or part of it: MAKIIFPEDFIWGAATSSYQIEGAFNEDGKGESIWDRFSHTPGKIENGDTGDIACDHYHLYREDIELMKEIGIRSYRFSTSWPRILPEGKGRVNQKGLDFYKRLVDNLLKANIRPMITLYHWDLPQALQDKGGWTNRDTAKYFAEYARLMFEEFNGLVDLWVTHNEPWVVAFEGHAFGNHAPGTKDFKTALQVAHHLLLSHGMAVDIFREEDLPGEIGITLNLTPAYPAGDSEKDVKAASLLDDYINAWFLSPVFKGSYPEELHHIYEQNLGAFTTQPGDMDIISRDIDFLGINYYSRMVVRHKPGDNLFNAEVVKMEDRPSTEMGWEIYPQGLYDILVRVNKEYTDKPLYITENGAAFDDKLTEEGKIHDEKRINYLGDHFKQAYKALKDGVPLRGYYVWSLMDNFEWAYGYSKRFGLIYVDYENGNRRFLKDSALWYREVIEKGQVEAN

Molecular target: HoBGLA (Halothermothrix orenii, UniProt B8CYA8)
Set-up: gene Hore_15280

## OC[C@H]1OC(O)[C@H](F)[C@@H](O)[C@@H]1O (stereo partly drawn) [2-deoxy-2-fluoro-D-glucose]
  X-ray crystal structure, 2.0 Å, soaked: the catalytic nucleophile appears to be labeled by 2FGlc
